{"source": "ChEMBL document CHEMBL5104099", "about": "“Recent applications of seven-membered rings in drug design” (Bioorg Med Chem, 2022)", "molecular_target": "Human immunodeficiency virus type 1 protease (Human immunodeficiency virus 1, UniProt Q72874)", "experiment": "Binding affinity to HIV-1 protease assessed as inhibition constant incubated for 60 mins by mass spectrometric analysis", "note": "pKi: −log10 of the molar value."}
{"smiles": "CC(C)CN(C[C@@H](O)[C@H](Cc1ccccc1)NC(=O)O[C@H]1CCOC1)S(=O)(=O)c1ccc(N)cc1", "note": "[AMPRENAVIR]", "values": [{"measurement": "pKi", "result": 10.10}]}
